Target: T1, Recombinant human HSP90a (Homo sapiens, UniProt P07900)
T1 construct: host or cells: E. coli
Experiment: HSP90 radioligand filter binding test ([3H]17AAG competition)
Settings: [3H]17AAG 0.08 μM, HSP90 1.5 μg/assay, 22° C., 30 min, pH 7.0; read-out: IC50 (HSP90 inhibition)
Protocol: In the specific case, a radioligand filter binding test is used. The radioligand used here is tritium-labelled 17-allylaminogeldanamycin, [3H]17AAG. This filter binding test allows a targeted search for inhibitors which interfere with the ATP binding site.
HEPES filter buffer (50 mM HEPES, pH 7.0, 5 mM MgCl2, BSA 0.01%)
Multiscreen FB (1 μm) filter plate (Millipore, MAFBNOB 50).
The 96-well microtitre filter plates are firstly irrigated and coated with 0.1% of polyethylenimine.
The test is carried out under the following conditions:
Reaction temperature 22° C.
Reaction time: 30 min., shaking at 800 rpm
50 mM HEPES HCl, pH 7.0, 5 mM MgCl2, 0.01% (w/v) of BSA
At the end of the reaction, the supernatant in the filter plate is removed by suction with the aid of a vacuum manifold (Multiscreen Separation System, Millipore), and the filter is washed twice.
The filter plates are then measured in a beta counter (Microbeta, Wallac) with scintillator (Microscint 20, Packard).
“% of control” is determined from the “counts per minutes” values, and the IC-50 value of a compound is calculated therefrom.

Structure (SMILES) | IC50 [nM]
Cc1cccc(Cc2n[nH]c3cc(O)c(C(=O)N4CCC(O)C4)cc23)c1 (stereo not drawn) [Compound A6, 5-(3-Hydroxypyrrolidin-1-ylcarbonyl)-3-(3-methylbenzyl)-6-hydroxy-1H-indazole] | 10 to 1000
Cc1cccc(Cc2n[nH]c3cc(O)c(C(=O)N4CC[C@@H](O)C4)cc23)c1 [Compound A8, 5-((R)-3-Hydroxypyrrolidin-1-ylcarbonyl)-3-(3-methylbenzyl)-6-hydroxy-1H-indazole] | 10 to 1000
Cc1cccc(Cc2n[nH]c3cc(O)c(C(=O)N4CC[C@H](O)C4)cc23)c1 [Compound A9, 5-((S)-3-Hydroxypyrrolidin-1-ylcarbonyl)-3-(3-methylbenzyl)-6-hydroxy-1H-indazole] | 1000 to 10000

From patent US20100256137A1, “INDAZOLAMIDE DERIVATIVES” (MERCK PATENT GESELLSCHAFT MIT BESCHRANKTER HAFTUNG, priority 2007, published 2010)
